Target: T1, HeLa cells transfected with human 5-HT6 receptor (Homo sapiens, UniProt P50406)
T1 construct: expressed in transfected cells; host or cells: HeLa
Experiment: Serotonin-stimulated cAMP accumulation in HeLa cells (EIA)
Type: cell-based
Conditions: FIG. 1

Protein sequences, listed by entry. Tags and fused reporters are not part of them.
UniProt P50406, whole entry: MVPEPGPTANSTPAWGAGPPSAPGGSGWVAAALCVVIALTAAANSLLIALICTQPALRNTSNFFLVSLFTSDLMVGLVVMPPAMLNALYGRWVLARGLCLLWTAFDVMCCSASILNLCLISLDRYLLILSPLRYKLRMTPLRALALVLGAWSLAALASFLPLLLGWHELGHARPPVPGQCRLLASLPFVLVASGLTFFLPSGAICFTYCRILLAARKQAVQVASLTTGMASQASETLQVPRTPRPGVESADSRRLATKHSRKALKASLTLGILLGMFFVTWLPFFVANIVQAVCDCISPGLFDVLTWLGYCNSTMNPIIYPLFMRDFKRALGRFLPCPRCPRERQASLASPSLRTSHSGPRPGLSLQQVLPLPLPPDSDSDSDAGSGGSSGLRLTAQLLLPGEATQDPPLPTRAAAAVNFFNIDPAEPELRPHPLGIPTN

Structure (SMILES): CSc1ccc2c(c1)C(N1CCN(C)CC1)Cc1ccccc1S2 (stereo not shown) [methiothepin, reference compound]
- effect on serotonin-stimulated cAMP accumulation (in words): inhibited serotonin-stimulated cAMP accumulation in a dose-dependent manner

— patent US20090203708A1, “NOVEL SUBSTITUTED-1-H-QUINAZOLINE-2,4-DIONE DERIVATIVES, PREPARATION METHOD THEREOF AND PHARMACEUTICAL COMPOSITION CONTAINING THE SAME” (Korea Research Institute of Chemical Technology, priority 2006, published 2009)
